Laboratory results published in PubChem BioAssay (Tox21).
The list shows a part of the results, in another mix than the full data. Inconclusive results are not listed. Active and inactive are the calls of the source. Unless noted, calls follow the shape of the dose curve; as a rule, active = well fitted curve in the direction sought with a large enough effect in the repeat runs; inconclusive = weak or mixed curves; inactive = no such curve, though single readings can be large; an effect the other way counts as inactive or inconclusive.

Sequences of proteins named here, by UniProt entry; tags and fusion partners are left off.
UniProt P04150, whole entry: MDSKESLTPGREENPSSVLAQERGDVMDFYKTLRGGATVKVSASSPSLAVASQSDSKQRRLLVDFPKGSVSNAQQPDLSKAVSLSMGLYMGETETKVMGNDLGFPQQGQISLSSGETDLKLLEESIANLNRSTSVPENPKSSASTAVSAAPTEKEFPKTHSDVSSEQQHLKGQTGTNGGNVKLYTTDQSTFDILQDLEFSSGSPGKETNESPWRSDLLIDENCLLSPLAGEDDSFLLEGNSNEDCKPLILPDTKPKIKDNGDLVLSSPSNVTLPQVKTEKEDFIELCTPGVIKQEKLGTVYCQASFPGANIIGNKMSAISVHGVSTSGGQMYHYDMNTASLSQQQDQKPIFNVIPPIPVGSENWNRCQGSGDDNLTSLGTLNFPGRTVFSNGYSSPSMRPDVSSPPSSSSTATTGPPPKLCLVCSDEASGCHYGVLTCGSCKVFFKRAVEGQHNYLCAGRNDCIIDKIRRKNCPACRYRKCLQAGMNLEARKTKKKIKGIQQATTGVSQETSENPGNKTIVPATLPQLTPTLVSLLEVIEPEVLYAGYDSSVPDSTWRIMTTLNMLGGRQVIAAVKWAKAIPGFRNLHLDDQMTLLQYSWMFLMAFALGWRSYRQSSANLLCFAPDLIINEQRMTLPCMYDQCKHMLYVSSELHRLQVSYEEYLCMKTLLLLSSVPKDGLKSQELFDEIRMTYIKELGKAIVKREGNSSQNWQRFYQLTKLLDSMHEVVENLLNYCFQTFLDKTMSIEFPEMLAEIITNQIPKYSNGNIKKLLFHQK

What was measured:
[1] = qHTS assay for small molecule agonists of the p53 signaling pathway (AID 651631; calls by dose curve; also: nearly all actives have a fitted effect of over 15% in size); details: HCT-116 p53RE-bla reporter, beta-lactamase FRET ratio, 16 h; at 73.3 µM (top of the series)
Procedure, shortened: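 Testing took place in human colorectal HCT-116 cells with stable p53RE-driven beta-lactamase. After 16 h of compound exposure at 37 °C, a FRET substrate was added and fluorescence recorded 2 h later.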

[2] = qHTS assay for small molecules that induce genotoxicity in human embryonic kidney cells expressing luciferase-tagged ATAD5 (AID 651632); also: nearly all actives have a fitted effect of over 15% in size
Procedure, shortened: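 HEK293T cells carrying a luciferase reporter tagged to ATAD5 were exposed to compound or DMSO vehicle for 16 hr at 37C, 5% CO2. Amplite was added, and after 30 min at room temperature luciferase activity was read as a marker of ATAD5 induction.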

[3] = qHTS assay for small molecule agonists of the p53 signaling pathway - cell viability (AID 651633; calls by dose curve; also: nearly all actives have a fitted effect of over 30% in size); details: p53RE-bla HCT-116 viability, ATP luminescence, 16 h
Procedure, shortened: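 Viability counter-read: CellTiter-Glo luminescence (30 min, room temperature) in the same p53RE-bla plates. These plates had been exposed to compounds for 16 h at 37 C.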

[4] = qHTS assay for small molecules that induce genotoxicity in human embryonic kidney cells expressing luciferase-tagged ATAD5 - cell viability (AID 651634; calls by dose curve; also: nearly all actives have a fitted effect of over 25% in size); details: HEK293T ATAD5-luc cells viability, CellTiter-Fluor, 15.5 h
Procedure, shortened: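 HEK293T cells expressing luciferase-tagged ATAD5 were exposed to compound or DMSO for 15.5 hr at 37C, 5% CO2. Viability was then read as live-cell protease activity by CellTiter-Fluor fluorescence after 30 min at 37C.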

[5] = qHTS assay for small molecule disruptors of the mitochondrial membrane potential - cell viability (AID 720634; calls by dose curve;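 also: human HepG2 liver cancer cells; nearly all actives have a fitted effect of over 20% in size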); details: HepG2 viability, ATP luminescence (CellTiter-Glo), 1 h
Procedure, shortened: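 HepG2 cells seeded overnight at 37 C, then exposed to compound or DMSO for 1 hr at 37 C, 5% CO2. m-MPI dye added, then CellTiter-Glo for 30 min at room temperature; viability read as ATP luminescence.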

[6] = qHTS assay to test for compound auto fluorescence at 590 nm (red) in HepG2 cells (AID 720674); details: HepG2 autofluorescence, red 540/590 nm, 1 h
Procedure, shortened: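 We screened compounds on adherent HepG2 cells, incubating them for an hour at 37 C in 5% CO2 before reading emission at 590 nm under 540 nm excitation; values reflect equivalence to Rose Bengal sodium fluorescence.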

[7] = qHTS assay to test for compound auto fluorescence at 535 nm (green) in HepG2 cells (AID 720675); details: green autofluorescence 485/535 nm, 1 h
[8] = qHTS assay to test for compound auto fluorescence at 460 nm (blue) in HEK293 cells (AID 720678); details: blue autofluorescence 405/460 nm
Procedure, shortened: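 Cells were seeded and left to adhere for 4-5 hr at 37C. Compounds were then pin-transferred. After an overnight incubation at 37C under 5% CO2, intrinsic fluorescence at 405/460 nm was measured and referenced to triamterene.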

[9] = qHTS assay to test for compound auto fluorescence at 590 nm (red) in HEK293 cells (AID 720679); details: red autofluorescence 540/590 nm
Procedure, shortened: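 Each well held 2,000 HEK293 cells in medium containing 10% dialyzed FBS. Following 4-5 hr attachment at 37C, 23 nL test compound or DMSO was added; plates sat overnight, and red fluorescence (540/590nm) was recorded.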

[10] = qHTS assay to test for compound auto fluorescence at 535 nm (green) in HEK293 cells (AID 720680); details: green autofluorescence 485/535 nm
[11] = qHTS assay to test for compound auto fluorescence at 460 nm (blue) in HEK293 cell free culture (AID 720681); details: cell-free medium, autofluorescence 405/460 nm (blue)
Procedure, shortened: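 Blue fluorescence (Ex 405/Em 460 nm, triamterene-equivalent) was read immediately after pin transfer of compound or DMSO into medium (DMEM, 10% FBS) without cells.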

[12] = qHTS assay to test for compound auto fluorescence at 535 nm (green) in HEK293 cell free culture (AID 720682); details: cell-free medium, green autofluorescence 485/535 nm, active compounds read high
Procedure, shortened: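 DMEM + 10% FBS, cell-free; cpd or DMSO pinned in; Ex485/Em535 read; output as fluorescein-equivalent signal.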

[13] = qHTS assay to test for compound auto fluorescence at 590 nm (red) in HEK293 cell free culture (AID 720683); details: cell-free medium autofluorescence, Ex540/Em590 red
Procedure, shortened: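 Red-channel autofluorescence of compounds in culture medium (DMEM, 10% FBS), no cells, measured at 540/590 nm. Rose Bengal sodium is the reference fluorophore for equivalence.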

[14] = qHTS assay to test for compound auto fluorescence at 590 nm (red) in HepG2 cell free culture (AID 720684); details: cell-free medium autofluorescence, red 540/590 nm
Procedure, shortened: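 Plate contents were MEM with 10% FBS plus test compound or DMSO, no cells. Fluorescence was recorded with 540 nm excitation and 590 nm emission.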

[15] = qHTS assay to test for compound auto fluorescence at 460 nm (blue) in HepG2 cell free culture (AID 720685); details: Cell-free culture medium, blue autofluorescence 405/460 nm
Procedure, shortened: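 Compound (23 nL) or DMSO pinned into cell-free MEM with 10% FBS; blue fluorescence read at 405/460 nm excitation/emission, expressed as auto-fluorescence equivalency to triamterene.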

[16] = qHTS assay to test for compound auto fluorescence at 535 nm (green) in HepG2 cell free culture (AID 720686); details: Cell-free medium, green autofluorescence 485/535 nm
[17] = qHTS assay to test for compound auto fluorescence at 460 nm (blue) in HepG2 cells (AID 720687); details: autofluorescence 405/460 nm, 1 h
Procedure, shortened: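 Blue-channel autofluorescence (Ex/Em 405/460 nm, triamterene-equivalent) was measured after 1 hr compound exposure at 37 C, 5% CO2. Cells were HepG2, plated overnight at 37 C in MEM plus 10% FBS.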

[18] = target: Glucocorticoid receptor (Homo sapiens) (UniProt P04150); assay: qHTS assay to identify small molecule agonists of the glucocorticoid receptor (GR) signaling pathway (AID 720691; active = well fitted activation curve with a large enough effect in the signal ratio in the repeat runs, not every such curve was filed as active; the % refers to the signal ratio); details: GR-bla HeLa, beta-lactamase reporter ratio, 18 h
[19] = target: Glucocorticoid receptor (Homo sapiens) (UniProt P04150); assay: qHTS assay to identify small molecule antagonists of the glucocorticoid receptor (GR) signaling pathway (AID 720692; active = well fitted inhibition curve with a large enough effect in the signal ratio in the repeat runs, not every such curve was filed as active; the % refers to the signal ratio); details: GR-bla HeLa, beta-lactamase FRET ratio, dexamethasone-stimulated, 18 h; at 58.5 µM (top of the series)
[20] = qHTS assay for identifying genotoxic compounds that show differential cytotoxicity against isogenic chicken DT40 cell lines with known DNA damage response pathways - wild type cell line (AID 743012); details: DT40 wild type chicken cells viability, CellTiter-Glo, 40 h; at 68.4 µM (top of the series); also: nearly all actives have a fitted effect of over 60% in size
Procedure, shortened: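 Parental DNA repair-proficient DT40 cells, 300 per well, were pre-incubated ~0.5 h at 37 C/5% CO2, pin-dosed with compounds in DMSO, then incubated 40 h. Viability was read as CellTiter-Glo luminescence after 30 min at room temperature.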
% is scaled to controls: 0 for no effect and ±100 for the full control effect.

COc1ccc([N+](=O)[O-])cc1[N+](=O)[O-]
inactive: activation [1] -3.72% | Potency [2] | activity change, negative = cytotoxicity ([3]; at 83.3 µM (top of the series)) -14.1% | activity, negative = cytotoxicity ([4]; at 83.3 µM (top of the series)) 17.5% | activity change, negative = cytotoxicity ([5]; at 83.2 µM (top of the series)) -7.09% | fluorescence, relative to Rose Bengal ([6]; at 91.3 µM (top of the series)) 0.136% | fluorescence, % of fluorescein control ([7]; at 91.3 µM (top of the series)) -0.0336% | fluorescence, % of triamterene ([8]; at 91.3 µM (top of the series)) -0.0093% | fluorescence, % of fluorescent control ([9]; at 91.3 µM (top of the series)) -0.108% | fluorescence, % of fluorescein ([10]; at 91.3 µM (top of the series)) 0.055% | fluorescence, % of fluorescent control ([11]; at 91.3 µM (top of the series)) -0.0213% | activity change ([12]; at 91.3 µM (top of the series)) 0.0032% | fluorescence, % of fluorescent control ([13]; at 91.3 µM (top of the series)) 0.0033% | fluorescence, % of Rose Bengal ([14]; at 91.3 µM (top of the series)) 0.0164% | fluorescence, % of fluorescent control ([15]; at 91.3 µM (top of the series)) 0.0998% | fluorescence, % of fluorescein control ([16]; at 91.3 µM (top of the series)) 0.0078% | fluorescence, % of fluorescent control ([17]; at 91.3 µM (top of the series)) 0.134% | activation ([18]; at 62.4 µM (top of the series)) -8.47% | activity change, negative = inhibition [19] -18.3%

O=[N+]([O-])c1cccc([N+](=O)[O-])c1
inactive: Potency [2] | activity change, negative = cytotoxicity ([3]; at 83.3 µM (top of the series)) -11.1% | activity change, negative = cytotoxicity ([3]; at 95.3 µM (top of the series)) -23.1% | activity, negative = cytotoxicity ([4]; at 83.3 µM (top of the series)) 2.34% | activity, negative = cytotoxicity ([4]; at 95.3 µM (top of the series)) 21.8% | activity change, negative = cytotoxicity ([5]; at 83.2 µM (top of the series)) 12.9% | activity change, negative = cytotoxicity ([5]; at 95.3 µM (top of the series)) -20.3% | fluorescence, relative to Rose Bengal ([6]; at 46 µM (top of the series)) 0.927% | fluorescence, relative to Rose Bengal ([6]; at 91.3 µM (top of the series)) 0.314% | fluorescence, % of fluorescein control ([7]; at 46 µM (top of the series)) -0.195% | fluorescence, % of fluorescein control ([7]; at 95.7 µM (top of the series)) -0.21% | fluorescence, % of triamterene ([8]; at 46 µM (top of the series)) -0.335% | fluorescence, % of triamterene ([8]; at 95.7 µM (top of the series)) -0.418% | fluorescence, % of fluorescent control ([9]; at 46 µM (top of the series)) -0.0004% | fluorescence, % of fluorescent control ([9]; at 95.7 µM (top of the series)) -0.959% | fluorescence, % of fluorescein ([10]; at 46 µM (top of the series)) -0.068% | fluorescence, % of fluorescein ([10]; at 91.3 µM (top of the series)) 0.136% | fluorescence, % of fluorescent control ([11]; at 46 µM (top of the series)) -0.054% | fluorescence, % of fluorescent control ([11]; at 95.7 µM (top of the series)) -0.458% | activity change ([12]; at 46 µM (top of the series)) -0.0328% | activity change ([12]; at 95.7 µM (top of the series)) -0.137% | fluorescence, % of fluorescent control ([13]; at 46 µM (top of the series)) -0.25% | fluorescence, % of fluorescent control ([13]; at 91.3 µM (top of the series)) -0.821% | fluorescence, % of Rose Bengal ([14]; at 46 µM (top of the series)) -0.117% | fluorescence, % of Rose Bengal ([14]; at 95.7 µM (top of the series)) 0.237% | fluorescence, % of fluorescent control ([15]; at 46 µM (top of the series)) 0.0091% | fluorescence, % of fluorescent control ([15]; at 95.7 µM (top of the series)) -0.236% | fluorescence, % of fluorescein control ([16]; at 46 µM (top of the series)) -0.0328% | fluorescence, % of fluorescein control ([16]; at 95.7 µM (top of the series)) -0.117% | fluorescence, % of fluorescent control ([17]; at 46 µM (top of the series)) 0.0358% | fluorescence, % of fluorescent control ([17]; at 95.7 µM (top of the series)) 4.45% | activation ([18]; at 62.4 µM (top of the series)) -0.87% | activation ([18]; at 79.2 µM (top of the series)) -2.88% | activity change, negative = inhibition [19] 11.6% | activity change, negative = cytotoxicity [20] -1%

CCOP(=O)(CC)Oc1ccc([N+](=O)[O-])cc1 (centres undefined)
inactive: Potency [2] | activity, negative = cytotoxicity ([4]; at 83.3 µM (top of the series)) -22.9% | activity change, negative = cytotoxicity ([5]; at 83.2 µM (top of the series)) 7.83% | fluorescence, relative to Rose Bengal ([6]; at 46 µM (top of the series)) 0.279% | fluorescence, % of fluorescein control ([7]; at 46 µM (top of the series)) -0.0262% | fluorescence, % of triamterene ([8]; at 46 µM (top of the series)) -0.156% | fluorescence, % of fluorescent control ([9]; at 46 µM (top of the series)) -0.0077% | fluorescence, % of fluorescein ([10]; at 46 µM (top of the series)) -0.222% | fluorescence, % of fluorescent control ([11]; at 46 µM (top of the series)) 0.0293% | activity change ([12]; at 46 µM (top of the series)) -0.0882% | fluorescence, % of fluorescent control ([13]; at 46 µM (top of the series)) 0.148% | fluorescence, % of Rose Bengal ([14]; at 46 µM (top of the series)) -0.195% | fluorescence, % of fluorescent control ([15]; at 46 µM (top of the series)) 0.0199% | fluorescence, % of fluorescein control ([16]; at 46 µM (top of the series)) 0.0443% | fluorescence, % of fluorescent control ([17]; at 46 µM (top of the series)) -0.21%
